Values quoted from earlier work, collected in article PMC5217177 (Journal of natural products, 2016).

System: three distinct human tumor cell lines
Settings: cited from earlier work

## actinomycin Y5
  cytotoxicity: did not have detectable cytotoxicity
Three distinct human tumor cell lines
  fold less potent than actinomycin D (cytotoxicity): > 5000 fold
